Assay: Identification of albiflorin metabolites in vivo
Set-up: species or system ICR mice
Conditions: after albiflorin administration
Procedure, shortened: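 Fecal metabolites were profiled by LC/MSn-IT-TOF. Feces were extracted with methanol (1/10, g/mL) by ultrasound for 30 min and centrifuged 10 min at 21100 ×g; 20 μL of supernatant was injected. Separation used a C18 column (250 × 4.6 mm, 5 μm) with a water/0.5% formic acid–methanol gradient at 0.8 mL/min over 45 min. Brain was sampled 2 h after oral dosing at 14 mg/kg, with analytes quantified by HPLC-MS/MS.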

Substance: glutathione-conjugated albiflorin [M4]
- Where the metabolite was detected in mice: only detected in the feces

Source: article PMC6299426 (Theranostics, 2018)
